Earlier results as cited in US6887842B1, “Modulating a pharmacokinetic property of a drug by administering a bifunctional molecule containing the drug” (The Board of Trustees of the Leland Stanford Junior …, priority 1999, dated 2005).

Settings: in vivo

## fluorostatin
  hepatic first-pass clearance: extensive hepatic first-pass clearance
